Drawing on paper PMC5395944, this text covers stoichiometry N for one substance.

In the experiment the target is PglK wild type (lipid-linked oligosaccharide flippase, ABC transporter) from Campylobacter jejuni (C. jejuni) (UniProt Q0P9C4). Description: cross-linking; 0.1% glutaraldehyde for 30 min, then high-mass MALDI mass spectrometry; PglK 18 μM and Nb 18 μM (1:2 PglK-homodimer:Nb), 10 mM HEPES pH 7.5, 100 mM NaCl, 0.016% LMNG; without nucleotides or with 5 mM MgCl2 and 5 mM ADP or ATP.

What is called stoichiometry N is the number of molecules, sites or subunits per partner or assembly. “PglK wild type (lipid-linked oligosaccharide flippase, ABC transporter) from Campylobacter jejuni (from UniProt Q0P9C4 3-564) (natural protein)” displayed a stoichiometry N of 2.
